Values of other authors as cited in patent US20170088822A1 (priority 2015, published 2017).

Biological target: T1, FabI from Staphylococcus aureus (SaFabI) (Staphylococcus aureus, UniProt Q6GI75)
T1 sequence (Q6GI75 1-256): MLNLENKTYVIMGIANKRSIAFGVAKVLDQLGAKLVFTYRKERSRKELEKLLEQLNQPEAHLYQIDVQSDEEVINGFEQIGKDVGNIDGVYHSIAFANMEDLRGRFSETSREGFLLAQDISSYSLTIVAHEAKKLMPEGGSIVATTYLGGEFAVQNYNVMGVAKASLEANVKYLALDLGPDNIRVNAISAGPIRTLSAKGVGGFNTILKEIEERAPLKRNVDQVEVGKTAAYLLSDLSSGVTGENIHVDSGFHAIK
Settings: cited from earlier work

AFN-1252
IC50: 14 nM
